# Where a name gives a salt, the structure may show the parent alone.
# Chains of the proteins cited; added tags and fusions are not shown. Residues count along the entry.
# UniProt Q1A7N1, 1-1104: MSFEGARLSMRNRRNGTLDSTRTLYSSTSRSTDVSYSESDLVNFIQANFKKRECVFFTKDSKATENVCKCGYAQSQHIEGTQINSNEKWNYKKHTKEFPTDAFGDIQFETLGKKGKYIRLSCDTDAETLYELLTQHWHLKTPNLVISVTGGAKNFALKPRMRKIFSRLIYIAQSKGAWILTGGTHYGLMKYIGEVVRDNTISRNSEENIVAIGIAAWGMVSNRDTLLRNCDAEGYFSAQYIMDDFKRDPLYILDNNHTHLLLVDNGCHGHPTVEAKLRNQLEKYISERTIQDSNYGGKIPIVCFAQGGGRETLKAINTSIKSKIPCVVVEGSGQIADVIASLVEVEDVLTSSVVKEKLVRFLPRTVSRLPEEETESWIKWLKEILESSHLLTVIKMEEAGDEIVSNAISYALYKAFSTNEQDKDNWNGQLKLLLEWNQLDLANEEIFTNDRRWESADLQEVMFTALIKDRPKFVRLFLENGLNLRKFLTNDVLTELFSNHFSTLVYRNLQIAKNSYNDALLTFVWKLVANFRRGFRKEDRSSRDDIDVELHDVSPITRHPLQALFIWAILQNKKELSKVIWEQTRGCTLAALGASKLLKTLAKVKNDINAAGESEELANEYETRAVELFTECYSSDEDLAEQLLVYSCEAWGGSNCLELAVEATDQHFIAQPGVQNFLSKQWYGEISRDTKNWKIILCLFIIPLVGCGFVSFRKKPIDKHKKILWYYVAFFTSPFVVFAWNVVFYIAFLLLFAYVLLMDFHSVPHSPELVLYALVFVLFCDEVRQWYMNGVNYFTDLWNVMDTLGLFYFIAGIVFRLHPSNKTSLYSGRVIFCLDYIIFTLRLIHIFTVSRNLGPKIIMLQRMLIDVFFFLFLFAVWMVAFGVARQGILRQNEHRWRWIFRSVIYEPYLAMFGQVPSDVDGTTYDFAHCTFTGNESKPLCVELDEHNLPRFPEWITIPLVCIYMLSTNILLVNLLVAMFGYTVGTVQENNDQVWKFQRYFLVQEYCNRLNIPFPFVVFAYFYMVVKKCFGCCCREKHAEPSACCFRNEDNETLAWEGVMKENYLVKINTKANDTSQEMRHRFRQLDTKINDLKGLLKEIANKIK
# Molecular target: T1, canine TRPM8 (Canis lupus familiaris, UniProt Q1A7N1)
# T1 construct: expressed in transfected cells
# Test: In Vitro Canine TRPM8 Functional Assay (intracellular Ca2+ fluorescence, icilin activation, HEK293 cells)
# Assay type: cell-based
# Settings: for IC50: HEK293 cells expressing canine TRPM8, icilin activation, individually measured values (batches/salt forms), read-out: IC50 (nM), in vitro TRP M8 Activity; for inhibition at 0.2 µM: HEK293, read-out: % Inh (%) @0.2 μM, in vitro TRP M8 Activity, 0.2 μM test compound
# Procedure: The changes in fluorescent signal were monitored by a fluorescence plate reader, either a FLIPR™ (Molecular Devices) or FDSS (Hamamatsu). […] Cells were maintained in 5% CO2 at 37° C. At 24 hr prior to assay, cells were seeded in black wall, clear-base poly-D-lysine coated 384-well plates (BD Biosciences, NJ, USA) at a density of 5,000 cells per well in culture medium and grown overnight in 5% CO2 at 37° C. On assay day, growth media was removed, and cells were loaded with Calcium 3 Dye (Molecular Devices) for 35 min at 37° C., under 5% CO2 and then incubated for 25 min at room temperature and atmosphere. Subsequently, cells were tested for agonist-induced increases in intracellular Ca^2+ levels using FLIPR™ or FDSS. […] Maximal fluorescence intensity (FI) achieved upon addition of icilin was exported from the FLIPR™ or FDSS software and further analyzed using GraphPad Prism 3.02 (Graph Pad Software Inc., CA, U.S.A.). Basal FI was subtracted prior to normalizing data to percent of maximal response. Curves were generated using the average of quadruplicate wells for each data point using nonlinear regression of either sigmoidal dose response or sigmoidal dose response (variable slope). Finally, IC50 values were calculated with the best-fit curve determined by GraphPad Prism
SMILES,IC50 [nM],"% Inh (%) @0.2 μM, in vitro TRP M8 Activity (0.2 μM test compound, individually measured values)",inhibition at 0.2 µM (individually measured values) [%]
"COc1ccccc1-c1ccc2[nH]c(-c3cc(C(C)(C)C)nn3C)nc2c1 [Compound 12, 2-(5-tert-Butyl-2-methyl-2H-pyrazol-3-yl)-5-(2-methoxyphenyl)-1H-benzimidazole sodium salt]",13,–,–
"Cn1nc(C(C)(C)C)cc1-c1nc2cc(-c3c(F)cccc3C(F)(F)F)ccc2[nH]1 [Compound 61, 2-(5-tert-Butyl-2-methyl-2H-pyrazol-3-yl)-5-(2-fluoro-6-trifluoromethylphenyl)-1H-benzimidazole sodium salt]",13,–,–
"Cn1nc(C(C)(C)C)c(C#N)c1-c1nc2cc(-c3c(F)cccc3F)cc(C(F)(F)F)c2[n-]1.[Na+] [Compound 151, 3-tert-Butyl-5-[5-(2,6-difluoro-phenyl)-7-trifluoromethyl-1H-benzimidazol-2-yl]-1-methyl-1H-pyrazole-4-carbonitrile sodium salt]",–,"100, 100%",100
"CC(C)(C)c1nnc(-c2nc3cc(-c4ccccc4C(F)(F)F)cc(C(F)(F)F)c3[nH]2)o1 [Compound 190, 2-(5-tert-Butyl-[1,3,4]oxadiazol-2-yl)-7-trifluoromethyl-5-(2-trifluoromethyl-phenyl)-1H-benzimidazole sodium salt]",–,–,101
"Cn1nc(C(C)(C)C)nc1-c1nc2cc(-c3ccccc3C(F)(F)F)cc(C(F)(F)F)c2[nH]1 [Compound 192, 2-(5-tert-Butyl-2-methyl-2H-[1,2,4]triazol-3-yl)-7-trifluoromethyl-5-(2-trifluoromethyl-phenyl)-1H-benzimidazole sodium salt]",–,–,86
